Assay results taken from patent publication US11976065B2 (CELISTA PHARMACEUTICALS LLC, priority 2020, dated 2024).

Assay: physchem
Settings: water, thermodynamic from solid

SMILES: CC(C)Cn1cnc2c(N)nc3ccccc3c21 [Imiquimod, 1-(2-methylpropyl)-1H-imidazo[4,5-c]quinolin-4-amine]
- solubility: 2.2 µg/mL (≈ 9.15 µM)

≈ marks a conversion by molar mass, not a printed value.
